# From PubChem BioAssay AID651687 (Broad Institute, 2012)
# The list shows a part of the results, in another mix than the full data. Active and inactive are the calls of the source.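 The calls were made as follows: active = every replicate shows inhibition of at least 40%; inconclusive = mean inhibition at least 40% but some replicate below; inactive = the rest.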
# Experiment: inhibitors of PGC1a acetylation signal, primary screen, cell-based, U2OS, AlphaScreen, inhibitor mode (AID 651687);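 also: 0% = neutral control wells and 100% = positive control wells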
# Details: AlphaScreen anti-acetyl-lysine, at 15.6 µM, active compounds read high, with virally co-expressed GCN5 acetyltransferase
row,SMILES,inhibition
1,Cc1cc(=O)[nH]c(N[N+](=O)[O-])n1,inactive: 8.62%
2,O=C(OC1CN2CCC1CC2)C12CC3CC(CC(C3)C1)C2 (stereo not drawn),inactive: -14.2%
3,COc1cc(I)ccc1[As](=O)(O)O,inactive: 2.15%
4,O=P1(N(CCCl)CCCl)Nc2ccccc2N1,inactive: -2.46%
5,COc1ccc(CN2/C(=N\P(=O)(Oc3ccccc3)Oc3ccccc3)Cc3ccccc3C2C2CC2)cc1 (stereo not drawn),inactive: -1.04%
6,COc1ccc(N/C(=N/P(=O)(N2CCOCC2)N2CCOCC2)N2CCOCC2)cc1,inactive: -8.39%
7,O=[N+]([O-])c1cc(Oc2ccc([N+](=O)[O-])cc2C(F)(F)F)cc([N+](=O)[O-])c1,inactive: 0.951%
8,COc1cc(C(=O)NCC2(N3CCOCC3)CCCCC2)ccc1OCC(C)C,inactive: -6.38%
9,O=[N+]([O-])c1ccc(-c2cc([N+](=O)[O-])c(O)c([N+](=O)[O-])c2)cc1,inactive: -7.98%
10,O=[As](O)(c1ccc(O)cc1)c1ccccc1O,inactive: -0.713%
11,Cc1ccc(OP(=O)(Nc2ccc([N+](=O)[O-])cn2)Oc2ccc(C)cc2)cc1,inactive: 4.45%
12,CC(C)c1ccc(OP(=O)(Nc2ccccn2)Oc2ccccc2F)cc1 (stereo not drawn),inactive: 16.5%
13,COC(=O)C1(C)COP(=O)(N2CCCCCC2)OC1 (stereo not drawn),inactive: 3.76%
14,ClCCSc1nnc(-c2cccnc2)o1,inactive: 4.29%
15,CCN(CC)C(=S)SC(NC=O)C(Cl)(Cl)Cl (stereo not drawn),inactive: -1.99%
16,O=C(OC1CN2CCC1CC2)c1cccc2[nH]cnc12 (stereo not drawn),inactive: 6.1%
17,CC(C)NC(=O)NP(=O)(Oc1ccccc1)Oc1ccccc1,inactive: -7.45%
18,O=C(O)C(O)c1ccc(N(CCCl)CCCl)cc1 (stereo not drawn),inactive: 11.6%
19,CCOC(=O)Nc1ccc([As](=O)(O)O)c(O)c1,inactive: 9.69%
20,COP(=O)(OC)N1CC1c1ccccc1 (stereo not drawn),inactive: 9.62%
21,O=P(Nc1ccccn1)(c1cccc2ccccc12)c1cccc2ccccc12,inactive: 0.838%
22,COP1(=S)c2c(C)nn(CCC#N)c2N=C(c2ccc(F)cc2)N1C (stereo not drawn),inactive: -1.27%
23,O=C(Nc1ccncc1[N+](=O)[O-])c1ccc([N+](=O)[O-])cc1[N+](=O)[O-],inactive: 13.1%
24,O=C(COc1ccccc1)OC1CN2CCC1CC2 (stereo not drawn),inactive: 0.538%
25,O=C(O)C(=O)c1ccc(N(CCCl)CCCl)cc1,inactive: -2.72%

row,SMILES,inhibition
1,CCOC(=O)c1ccc(NC(=O)C(C)(CCl)SC)cc1 (stereo not drawn),inactive: 8.58%
2,CSc1ccc(Nc2c([N+](=O)[O-])cc([N+](=O)[O-])cc2[N+](=O)[O-])cc1,inactive: 1.04%
3,O=C(OC1CN2CCC1CC2)c1cccc([N+](=O)[O-])c1 (stereo not drawn),inactive: 3.7%
4,CCC(C)N(CC(C)C)C(=S)SC(NC(C)=O)C(Cl)(Cl)Cl (stereo not drawn),inactive: 7.39%
5,CN(CCCl)Cc1cc(Cl)c(NC2=NCCN2)c(Cl)c1,inactive: -7.43%
6,O=P1(Nc2ccccn2)COc2ccccc2OC1,inactive: -0.214%
7,CC(C)(C)C(=O)NC(Sc1ncccn1)C(Cl)(Cl)Cl (stereo not drawn),inactive: -1.27%
8,O=P1(N(CCCl)CCCl)NCCC(C(F)(F)F)O1 (stereo not drawn),inactive: 0.675%
9,CC1(CBr)Cn2c(nc3ccccc3c2=O)S1 (stereo not drawn),inactive: -19.4%
10,CN(C(=O)Cc1ccc(Cl)c(Cl)c1)[C@@H]1CCCC[C@H]1N1CCCC1,inactive: 8.54%
11,CC(C)/C=N\N=C(\N)N[N+](=O)[O-],inactive: 3.42%
12,Cc1ccc(C(=O)OC2CN3CCC2CC3)cc1 (stereo not drawn),inactive: 6.61%
13,CC1CCC(C(C)C)C(OP(=O)(Nc2ccccn2)c2ccccc2)C1 (stereo not drawn),inactive: 2.16%
14,Cc1nn(-c2ccccc2)c2c1P(=O)(N1CCOCC1)N(C)C(c1ccccc1)=N2 (stereo not drawn),inactive: 7.13%
15,CCCC1OP(=O)(Nc2ccccc2)OCC1CC (stereo not drawn),inactive: -4.31%
16,O=C(/C=C/c1ccccc1)OC1CN2CCC1CC2 (stereo not drawn),inactive: -1.73%
17,CN(C)C1(CNC(=O)c2ccc(S(C)(=O)=O)cc2)CCCCC1,inactive: 7.47%
18,O=P1(Nc2ncccn2)COc2ccccc2OC1,inactive: 6.53%
19,Cc1ccc(S(=O)(=O)N(CCCN)CCCc2c(C)nc(N)[nH]c2=O)cc1,inactive: -14.8%
20,NS(=O)(=O)c1cccc(NC(=O)COC(=O)C(O)(c2ccccc2)c2ccccc2)c1,inactive: 1.42%
21,O=P1(Nc2ccc(Br)cn2)COc2ccccc2OC1,inactive: 1.28%
22,Cc1ccc(OCC(=O)OC2CN3CCC2CC3)cc1 (stereo not drawn),inactive: 0.232%
23,Nc1cccc([As](=O)(O)c2ccccc2)c1,inactive: -6.63%
24,CS(=O)(=O)c1cc([N+](=O)[O-])c2no[n+]([O-])c2c1,inactive: -0.412%
25,O=P(Nc1nccs1)(c1ccccc1)c1nc2ccccc2s1 (stereo not drawn),inactive: -1.49%

row,SMILES,inhibition
1,CCOP1(=S)c2c(C)nn(CCC#N)c2N=C(c2ccccc2F)N1C (stereo not drawn),inactive: -1.04%
2,Nc1ccccc1[As](=O)(O)c1ccccc1,inactive: 5.3%
3,CN(C(=O)Cc1ccc(Cl)c(Cl)c1)[C@H]1CC[C@@]2(CCCO2)C[C@@H]1N1CCCC1,inactive: -4.65%
4,CN(C)C(=O)c1cc([N+](=O)[O-])cc2c1-c1c(cc([N+](=O)[O-])cc1[N+](=O)[O-])C2=O,inactive: 31.8%
5,O=[N+]([O-])c1ccc2c(c1)nnn2O,inactive: -0.111%
6,CCOP1(=S)c2c(C)nn(CCC#N)c2N=C(c2ccc(F)cc2)N1C (stereo not drawn),inactive: 36.9%
7,CN(C(=O)Cc1ccccc1)[C@@H]1CC[C@]2(CCCO2)C[C@H]1N1CCCC1,inactive: -3.01%
8,COc1cc(C(=O)NCC2(N3CCOCC3)CCCCC2)cc(Cl)c1OC(C)C,inactive: -5.64%
9,O=[As](O)(O)c1cccnc1,inactive: -2.66%
10,O=C(OC1CN2CCC1CC2)c1ccc(Cl)cc1 (stereo not drawn),inactive: -4.75%
11,O=[As](O)(c1cccc(O)c1)c1cccc(O)c1,inactive: 5.66%
12,Cc1cccc(OCC(=O)OC2CN3CCC2CC3)c1 (stereo not drawn),inactive: -7.13%
13,Cc1ccc(NCCc2c([N+](=O)[O-])cc([N+](=O)[O-])cc2[N+](=O)[O-])cc1,inactive: 9.3%
14,Nc1cccc2c([As](=O)(O)O)cccc12,inactive: 0.521%
15,O=P1(Nc2nc3ccc(Cl)cc3s2)COc2ccccc2O1 (stereo not drawn),inactive: 0.019%
16,CCc1cc(O)c([N+](=O)[O-])c(C)c1[N+](=O)[O-],inactive: -12.2%
17,CC(C)(C)C(=O)NC(Sc1ccccc1)C(Cl)(Cl)Cl (stereo not drawn),inactive: -43.6%
18,COC(=O)C1(C)COP(=O)(NCc2ccccc2)OC1 (stereo not drawn),inactive: 6.82%
19,C[C@@H]1C=CCP(=O)(Oc2ccccc2)O1 (stereo partly drawn),inactive: 4.06%
20,Cc1ccccc1CN(C)C(=O)COC(=O)C(O)(c1ccccc1)c1ccccc1,inactive: -19.3%
21,CC(=O)Nc1ccc(Oc2c([N+](=O)[O-])cc([N+](=O)[O-])cc2[N+](=O)[O-])cc1,inactive: -10.1%
22,CC(=O)Nc1ccc([As](=O)(O)O)c(O)c1,inactive: -0.864%
23,O=C(NC1CCS(=O)(=O)C1)NP(=S)(Oc1ccccc1)Oc1ccccc1 (stereo not drawn),inactive: -7.19%
24,CCNC(=S)/N=C(\N)N[N+](=O)[O-],inactive: 6.75%
25,Cc1ccc(NP(=O)(Oc2cccc(C)c2)Oc2cccc(C)c2)nc1,inactive: -0.347%

row,SMILES,inhibition
1,c1ccc(-c2nn[nH]n2)c(-c2nn[nH]n2)c1,inactive: 3.09%
2,O=P1(N(CCCl)CCCl)OCCC2CCCCN21 (stereo not drawn),inactive: -7.49%
3,CC(=O)NC(SC(=S)N(CC(C)C)CC(C)C)C(Cl)(Cl)Cl (stereo not drawn),inactive: -20.8%
4,Cc1ccc(OP(=O)(Nc2ccccn2)Oc2ccc(C)cc2)cc1,inactive: -1.05%
5,COC(=O)c1cc2c(s1)N=C(c1ccccc1)N(C)P2(=O)N1CCOCC1 (stereo not drawn),inactive: 11.6%
6,CCC(=O)N1C2C3N(C(=O)CC)C1C1N(C(=O)CC)C(C(N1C(=O)CC)N3C(=O)CC)N2C(=O)CC,inactive: 6.57%
7,O=c1c2cc([N+](=O)[O-])ccc2[nH]c2c([N+](=O)[O-])cc([N+](=O)[O-])cc12,inactive: 3.97%
8,Cc1ccccc1OP(=O)(Nc1ccccn1)Oc1ccccc1C,inactive: -12.8%
9,CC(NC(=O)COC(=O)C(O)(c1ccccc1)c1ccccc1)c1ccccc1 (stereo not drawn),inactive: 2.45%
10,Nc1ccc(CCCCOc2ccccc2)cc1,inactive: -3.92%
11,COc1ccc(N)c([N+](=O)[O-])c1[N+](=O)[O-],inactive: 6.65%
12,CN(C)C1(CNC(=O)c2ccc(Cl)c(S(N)(=O)=O)c2)CCCCC1,inactive: 3.4%
13,O=P(Nc1ccccn1)(c1ccc(Br)cc1)c1ccc(Br)cc1,inactive: 26.4%
14,O=P(Nc1nc2ccccc2s1)(c1ccccc1)c1ccccc1,inactive: 4.77%
15,CC(=O)NC(SC(=S)N(C)C)C(Cl)(Cl)Cl (stereo not drawn),inactive: 9.19%
16,O=[N+]([O-])c1ncn(CCn2cnc([N+](=O)[O-])n2)n1,inactive: -1.01%
17,O=[N+]([O-])c1ccc(O)c(/C=N/Nc2ccc([N+](=O)[O-])cc2[N+](=O)[O-])c1,inactive: -9.31%
18,O=[As](O)(c1ccccc1)c1ccc(O)cc1,inactive: -15.6%
19,Nc1ccc([As](=O)(O)c2ccc([N+](=O)[O-])cc2)cc1,inactive: -2.89%
20,O=P(Nc1nccs1)(c1ccccc1)c1ccccc1,inactive: -0.82%
21,c1nnnn1CCn1cnnn1,inactive: -1.66%
22,COc1ccc(C2=NCC(CBr)S2)cc1 (stereo not drawn),inactive: -15.8%
23,CC(=O)N1C2C3N(C(C)=O)C1C1N(C(C)=O)C(C(N1C(C)=O)N3C(C)=O)N2C(C)=O,inactive: 7.26%
